Measurements: publication PMC10972748 (Nature, 2024)

Biological target: T1, SPSB3–ELOBC heterotrimeric complex (SPSB3 amino acids 83–326 with elongin B and elongin C) (human | , UniProt Q6PJ21 83-326; Q15370 1-118; Q15369 1-112)
T1 construct: SPSB3, human, core structured part, amino acids 83-326; elongin B (ELOB); elongin C (ELOC); also called substrate receptor complex; source: E. coli BL21 (DE3), purified (HisTrap, ULP1 cleavage, SEC); not shown: His6, N-terminal, cleaved; SUMO, N-terminal, cleaved; copies: + +
Assay: BLI; GatorPrime, anti-His probes; cGAS or cGAS mutants (50 μg/ml) immobilised; SPSB3-ELOBC or its mutant in solution at various concentrations; PBS; 25 °C; 1:1 binding model
Settings: both partners purified

B1: His–Halo-tagged cGAS (limits not told for the experiment) (natural protein, human, UniProt Q8N884 1-522, looked up)
chain: MQPWHGKAMQRASEAGATAPKASARNARGAPMDPTESPAAPEAALPKAGKFGPARKSGSRQKKSAPDTQERPPVRATGARAKKAPQRAQDTQPSDATSAPGAEGLEPPAAREPALSRAGSCRQRGARCSTKPRPPPGPWDVPSPGLPVSAPILVRRDAAPGASKLRAVLEKLKLSRDDISTAAGMVKGVVDHLLLRLKCDSAFRGVGLLNTGSYYEHVKISAPNEFDVMFKLEVPRIQLEEYSNTRAYYFVKFKRNPKENPLSQFLEGEILSASKMLSKFRKIIKEEINDIKDTDVIMKRKRGGSPAVTLLISEKISVDITLALESKSSWPASTQEGLRIQNWLSAKVRKQLRLKPFYLVPKHAKEGNGFQEETWRLSFSHIEKEILNNHGKSKTCCENKEEKCCRKDCLKLMKYLLEQLKERFKDKKHLDKFSSYHVKTAFFHVCTQNPQDSQWDRKDLGLCFDNCVTYFLQCLRTEKLENYFIPEFNLFSSNLIDKRSKEFLTKQIEYERNNEFPVFDEF
notes: cyclic GMP-AMP synthase (cGAS), human; also called Halo-cGAS; WT cGAS; source: E. coli BL21 (DE3), purified (HisTrap, SEC)
- Kd: 352 nM
